From US20220370565A1 (SHANGHAI INSTITUTE OF BIOLOGICAL PRODCCTS CO., LTD., priority 2019, published 2022) come the findings set out here.

For the assay, the system named is human breast cancer BT-474. The experiment in a line: subcutaneous transplanted tumors of human breast cancer BT-474 in nude mice. The assay is classed as in vivo. The note with it: Herceptin 5 mg/kg IV (first dose doubled), D 0, 3, 7, 10, 14, 17. On the procedure: The indicators of tumor inhibition experiments in mice were to investigate the effect of drugs on tumor growth, and the specific indicators were T/C % or the rate of tumor growth inhibition TGI (%).
The diameter of the tumor was measured with a vernier caliper twice a week, and the formula for calculating the tumor volume (V) was: V=½xaxb^2, wherein a and b represented the length and width, respectively.
T/C(%)=(T−T0)/(C−C0)×100,
wherein, T and C were the tumor volumes at the end of the experiment; T0 and C0 were the tumor volumes at the beginning of the experiment. • The rate of tumor growth inhibition (TGI) (%)=100−T/C (%).
When the tumor regressed, the rate of tumor growth inhibition (TGI) (%) was =100−(T−T0)/T0×100
If a tumor was smaller than the initial volume, i.e., T<T0 or C<C0, it was defined as partial regression (PR) of the tumor; if a tumor disappeared completely, it was defined as complete regression (CR) of the tumor.
At the end of the experiment (e.g., D21), reaching the experimental endpoint, or the tumor volume reached 1,500 mm^3, the animals were sacrificed after CO2 anesthesia, and then the tumors were dissected and photographed.
Nude mice were subcutaneously inoculated with 1×10^7 human breast cancer BT-474 cells. After the tumor grew to 100-150 mm^3, the animals were grouped according to tumor volume (D0). Mice were administered subcutaneously (SC) or intravenously (IV), twice a week (BIW); the administration volume was 10 mL/kg; the solvent group was administered with the same volume of “solvent” (normal saline); specific dosage and administration regimen were shown in Table 3. The tumor volumes were measured twice a week, the mice were weighed, and the data were recorded.
Two-tailed Student's t-test was used to compare tumor volumes between the two groups, and P<0.05 was defined as a statistically significant difference.

For “Herceptin: Trastuzumab injection, humanized anti-Her2 monoclonal antibody purchased from Roche Pharmaceuticals [reference compound]”, the “% T/C D 20” value is listed as 43%, the “Mean tumor volume D 20 SEM” value came out at 514.2 ± 113.4 mm^3 and the “Tumor inhibition rate % D 20” value is 57%. Besides, the “Mean tumor volume D 0 SEM” value (baseline at grouping) turned out to be 93.6 ± 2.4 mm^3.
